The chains behind the UniProt entries cited, without tags or fusion partners. Where a name states a change or a piece, a line headed by the entry shows the natural chain unless it says otherwise.
UniProt P33033: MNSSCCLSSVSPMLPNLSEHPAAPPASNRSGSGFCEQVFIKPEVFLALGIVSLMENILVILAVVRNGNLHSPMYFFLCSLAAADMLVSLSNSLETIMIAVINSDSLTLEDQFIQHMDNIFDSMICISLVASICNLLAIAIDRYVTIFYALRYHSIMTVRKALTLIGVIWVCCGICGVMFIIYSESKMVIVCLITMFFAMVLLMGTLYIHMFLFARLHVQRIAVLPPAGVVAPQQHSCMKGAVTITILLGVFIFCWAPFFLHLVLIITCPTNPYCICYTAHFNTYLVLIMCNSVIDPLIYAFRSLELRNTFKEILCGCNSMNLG

In ChEMBL document CHEMBL3576802, “Discovery of a β-Hairpin Octapeptide, c[Pro-Arg-Phe-Phe-Dap-Ala-Phe-DPro], Mimetic of Agouti-Related Protein(87-132) [AGRP(87-132)] with Equipotent Mouse Melanocortin-4 Receptor (mMC4R) Antagonist Pharmacology” (J Med Chem, 2015):

Target: Melanocortin receptor 3 (Mus musculus, UniProt P33033)
Assay: Displacement of MTII from mouse MC3R expressed in HEK293 cells
Assay type: cell-based

C[C@@H]1NC(=O)[C@H](CC(N)=O)NC(=O)[C@H](Cc2ccccc2)NC(=O)C(Cc2cccc3ccccc23)NC(=O)[C@H](CCCNC(=N)N)NC(=O)[C@@H]2CCCN2C(=O)[C@H]2CCCN2C(=O)[C@H](Cc2ccccc2)NC1=O (stereo partly specified)
Ki: 790 nM
